Experimental data taken from US11957711B2 (priority 2021, dated 2024).

Experiment: NOAEL (no-observed-adverse-effect-level) for inhaled gas

Substance: Dichlorine monoxide
- Values in mg/liters for gaseous mixtures for 8 hours (8 hours, (0.61×86.9054)/24200): 0.0028 ppm
- maximum value (NOAEL-based) in 24 hours (24 hours, (0.61×8)/24): 0.20 ppm
- NOAEL (Summary Toxicology Table): 0.0022 Mg/Liters in 8 hours
- maximum value that must be maintained to dose the product (NOAEL-based) (inhaling gas mixture for 8 hours without adverse effects, 1.23×0.5 from chlorine gas NOAEL): 0.61 ppm
